Membrane permeability of cyclic peptides

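Conditions beyond the assay type are not listed; see the original paper. The list need not hold all peptides of the study. Peptides that the database sets to -10, its floor, are left out.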

PAMPA is the parallel artificial membrane permeability assay, which has no cells and reads passive diffusion. Caco-2: transport across a human colon carcinoma cell monolayer. P is given in units of 10^-6 cm/s (from log10 values with two decimals); larger means faster passage. A structure that stands twice has two entries in the source.

For CC(C)C[C@@H]1NC(=O)[C@@H](CC(C)C)NC(=O)[C@H](CCC(=O)N2CCCC2)NC(=O)[C@@H](CC(C)C)NC(=O)[C@H]2CCCN2C(=O)[C@H](CC(C)C)NC1=O the data give PAMPA 0.2 × 10^-6 cm/s. CC(C)C[C@@H]1NC(=O)[C@@H](CC(C)C)NC(=O)[C@H](CC(C)C)NC(=O)[C@@H](CCC(=O)N2CCCC2)NC(=O)[C@H]2CCCN2C(=O)[C@H](CC(C)C)NC1=O has PAMPA 1.3 × 10^-6 cm/s. CC(C)C[C@@H]1NC(=O)[C@@H](CC(C)C)NC(=O)[C@H](CC2CCCCC2)NC(=O)[C@@H](CCC(=O)N2CCCC2)NC(=O)[C@H]2CCCN2C(=O)[C@H](CC(C)C)NC1=O has PAMPA 8.9 × 10^-6 cm/s. CC[C@@H]1NC(=O)[C@@H](CC(C)C)NC(=O)[C@H](CCC(=O)N2CCCC2)NC(=O)[C@@H](CC2CCCCC2)NC(=O)[C@H]2CCCN2C(=O)[C@H](CC(C)C)NC1=O has PAMPA 0.41 × 10^-6 cm/s. Listed for CC(C)C[C@@H]1NC(=O)[C@@H](CC(C)C)NC(=O)[C@H](CC(C)C)NC(=O)[C@@H](CC(=O)N(C)C)NC(=O)[C@H]2CCCN2C(=O)[C@H](CC(C)C)NC1=O: PAMPA 0.28 × 10^-6 cm/s. The entry for CC(C)C[C@@H]1NC(=O)[C@@H](CC(C)C)NC(=O)[C@H](CCC(=O)N2CCCC2)NC(=O)[C@@H](CC(C)C)NC(=O)[C@H]2CCCN2C(=O)[C@H](CC(C)C)NC1=O lists Caco-2 0.071 × 10^-6 cm/s.

The entry for CC[C@@H]1NC(=O)[C@@H](CC(C)C)NC(=O)[C@H](C)NC(=O)[C@@H](CCC(=O)N2CCCC2)NC(=O)[C@H]2CCCN2C(=O)[C@H](CC(C)C)NC1=O lists PAMPA 0.03 × 10^-6 cm/s. The entry for CC(C)C[C@@H]1NC(=O)[C@@H](CCC(=O)N2CCCC2)NC(=O)[C@H](CC(C)C)NC(=O)[C@@H](CC(C)C)NC(=O)[C@H]2CCCN2C(=O)[C@H](CC(C)C)NC1=O lists PAMPA 0.14 × 10^-6 cm/s and Caco-2 0.17 × 10^-6 cm/s. Listed for CC(C)C[C@@H]1NC(=O)[C@@H](CC(C)C)NC(=O)[C@H](CC(C)C)NC(=O)[C@@H](CCC(=O)N(C)C)NC(=O)[C@H]2CCCN2C(=O)[C@H](CC(C)C)NC1=O: PAMPA 0.66 × 10^-6 cm/s. CC(C)C[C@@H]1NC(=O)[C@H](CCc2ccccc2)NC(=O)[C@@H](CC(C)C)NC(=O)[C@H](C)NC(=O)[C@@H](CCC(=O)N2CCCC2)NC(=O)[C@H]2CCCN2C1=O is reported with PAMPA 1.3 × 10^-6 cm/s. CC(C)C[C@@H]1NC(=O)[C@@H](CCC(=O)N2CCCC2)NC(=O)[C@H]2CCCN2C(=O)[C@H](CC(C)C)NC(=O)[C@H](CCc2ccccc2)NC(=O)[C@@H](CC(C)C)NC1=O has PAMPA 5.6 × 10^-6 cm/s. For CC(C)C[C@@H]1NC(=O)[C@H](Cc2ccc3ccccc3c2)NC(=O)[C@@H](CC(C)C)NC(=O)[C@H](C)NC(=O)[C@@H](CCC(=O)N2CCCC2)NC(=O)[C@H]2CCCN2C1=O the data give PAMPA 3 × 10^-6 cm/s.

Excerpt, the opening 2 entries:

CC(C)C[C@@H]1NC(=O)[C@@H](CC(C)C)NC(=O)[C@H](CCC(=O)N2CCCC2)NC(=O)[C@@H](CC(C)C)NC(=O)[C@H]2CCCN2C(=O)[C@H](CC(C)C)NC1=O has PAMPA 0.2 × 10^-6 cm/s.
CC(C)C[C@@H]1NC(=O)[C@@H](CC(C)C)NC(=O)[C@H](CC(C)C)NC(=O)[C@@H](CCC(=O)N2CCCC2)NC(=O)[C@H]2CCCN2C(=O)[C@H](CC(C)C)NC1=O has PAMPA 1.3 × 10^-6 cm/s.

Collected by the curators of CycPeptMPDB (Li et al. 2023) from Taechalertpaisarn et al. 2022, doi:10.1021/acs.jmedchem.2c00010.